Reference: ChEMBL document CHEMBL3046476, “Qsar for Acetylcholinesterase and Butyrylcholinesterase Inhibition by Cardiovascular Drugs and Benzodiazepines” (Med Chem Res, 2005)

How the values were obtained:
Cholinesterase = Cholinesterase (Equus caballus, UniProt P81908); assay: Inhibition of Equus caballus (horse) serum butyrylcholinesterase (BChE) assessed as inhibition of BTCh hydrolysis by Ellman method
Acetylcholinesterase = Acetylcholinesterase (Electrophorus electricus, UniProt O42275)

CNC1=Nc2ccc(Cl)cc2C(c2ccccc2)=[N+]([O-])C1.Cl
pKi (Cholinesterase): 5.3

CNC1=Nc2ccc(Cl)cc2C(c2ccccc2)=[N+]([O-])C1
Ki (Acetylcholinesterase): 50 µM | Ki (Cholinesterase): 300 nM
